## Permeability data for macrocyclic peptides

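The data file gives no further conditions (lipid, pH, time, direction or concentration), and values from different papers need not be comparable. Other peptides of the study may be missing here. Peptides that the database sets to -10, its floor, are left out.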

PAMPA is the parallel artificial membrane permeability assay, which has no cells and reads passive diffusion. Caco-2 values are permeabilities across monolayers of Caco-2 human intestinal cells. Permeability is given as log10 of P in cm/s; higher (less negative) is more permeable. Cells with "n/a" have no entry in this list.

SMILES | PAMPA (log10 cm/s) | Caco-2 (log10 cm/s)
CC(C)CN1CC(=O)N[C@@H](Cc2ccccc2)C(=O)NCCC[C@@H](C)C(=O)N[C@@H](C)C1=O | -6.14 | -4.94
CC(C)C[C@@H]1NC(=O)CN(C)C(=O)[C@@H](C)CCCNC(=O)[C@H](Cc2ccccc2)NC1=O | -8.34 | -5.59
CC(C)C[C@@H]1C(=O)N[C@@H](Cc2ccccc2)C(=O)NCCC[C@H](C)C(=O)N[C@@H](C)C(=O)N1C | -5.75 | n/a
CC(C)C[C@@H]1NC(=O)[C@H](C)NC(=O)[C@@H](C)CCCNC(=O)CN(Cc2ccccc2)C1=O | -6.31 | -4.75
CC(C)C[C@@H]1NC(=O)[C@H](C)NC(=O)CCC[C@@H](C)NC(=O)[C@H](Cc2ccccc2)NC1=O | -7.05 | -5.04
CC(C)C[C@@H]1NC(=O)CN(C)C(=O)CCC[C@@H](C)NC(=O)[C@H](Cc2ccccc2)NC1=O | -7.18 | -5.23
CC(C)C[C@@H]1NC(=O)CN(C)C(=O)[C@H](C)CCCNC(=O)[C@H](Cc2ccccc2)NC1=O | -6.69 | -4.86

Collected by the curators of CycPeptMPDB (Li et al. 2023) from Comeau et al. 2021, doi:10.1021/acs.jmedchem.0c02036.